From patent US10071985B2, “Therapeutic compounds” (Gilead Sciences, Inc., priority 2016, dated 2018)

Experiment: Test B: Cytotoxicity Assay
Conditions: human

Cn1nc(NS(C)(=O)=O)c2c(Cl)ccc(-c3ccc(C#CC(C)(C)O)nc3[C@H](Cc3cc(F)cc(F)c3)NC(=O)Cn3nc(C(F)F)c4c3C(F)(F)[C@@H]3C[C@H]43)c21 [Compound A, reference compound] gave a CC50 at 5 days of 21.8 µM.
Cn1nc(NS(C)(=O)=O)c2c(Cl)ccc(-c3ccc(C#CC(C)(C)O)nc3[C@H](Cc3cc(F)cc(F)c3)NC(=O)Cn3nc(C(F)(F)F)c4c3C(F)(F)[C@@H]3C[C@H]43)c21 [Compound B, reference compound] gave a CC50 at 5 days of 14.5 µM.
